# Ab-95 light chain CDR variants: yeast mating affinities

Source: Engelhart et al. 2022 (doi:10.1038/s41597-022-01779-4), MIT Lincoln Laboratory and A-Alpha Bio; data file from the FLAb repository.

Antigen: PDVDLGDISGINAS, a 14-residue peptide of the SARS-CoV-2 spike HR2 region.

Ab-95 is the parent antibody, in scFv form: VH, then a (GGGGS)3 linker, then VL. The heavy chain is unchanged in all variants.
VH: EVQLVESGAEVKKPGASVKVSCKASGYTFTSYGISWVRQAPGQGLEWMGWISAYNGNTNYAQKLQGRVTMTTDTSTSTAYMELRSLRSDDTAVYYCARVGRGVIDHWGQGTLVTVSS
VL: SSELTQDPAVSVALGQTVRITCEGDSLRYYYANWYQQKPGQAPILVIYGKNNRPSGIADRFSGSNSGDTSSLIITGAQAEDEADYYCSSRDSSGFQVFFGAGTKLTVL

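In library AAYL52, one, two or three CDR residues were substituted; doubles and triples were drawn at random. Affinity was read by AlphaSeq, a pooled yeast mating assay with surface-displayed partners. The frequency of each diploid, read from paired DNA barcodes, reflects how well the two displayed proteins bind. Each replicate has its own calibration line, from reference interactions of the BCL2 family. There are three technical replicates.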

Positions count from residue 1 of the parent VL; A32L puts L in place of A.
Values are apparent Kd, the geometric mean of the replicates that gave a signal; lower means stronger binding.
"nd" marks a missing value. The strain was present, yet no cells mated with the target were sequenced in any replicate, which points to weak or no binding.
Nonspecific signal, from three strains lacking the peptide, appeared in 28% of pairings of library AAYL52, centred on 8.2 µM (5% of these signals below 800 nM); values are not corrected for it.

Variant A32L/N33W/D91E showed 12 µM (1 of 3 replicates).
Variant Y31A/V97Q/F98A showed nd (0 of 3 replicates).
Variant Y29I/F95L showed 22 µM (3 of 3 replicates).
Variant G49V/S55C/V97I showed 65 µM (2 of 3 replicates).
Variant S26H/Y31C/P54L showed 2.9 µM (3 of 3 replicates).
Variant G24Y/N51Q/S88I showed 400 nM (3 of 3 replicates).
Variant E23A/D91K/S93L showed 760 nM (2 of 3 replicates).
Variant E23V/P54I/S92H showed 1.6 µM (3 of 3 replicates).
Variant G24S/Y29F/Y30T showed 580 nM (3 of 3 replicates).
Variant E23A/R28E/F98I showed 410 nM (3 of 3 replicates).
Variant R90Q/S93F/F95S showed 110 nM (3 of 3 replicates).
Variant L27V/R28V/Y29H showed 110 µM (2 of 3 replicates).
Variant K50P/R53D/S93Q showed 4.3 µM (3 of 3 replicates).
Variant Y29M/N51I/F98P showed nd (0 of 3 replicates).
Variant L27C/S55F/Q96V showed 1.1 µM (3 of 3 replicates).
Variant Y29T/D91P/F98G showed 250 nM (3 of 3 replicates).
Variant E23V/N33A/G94S showed 4.6 µM (3 of 3 replicates).
Variant Y30N/N51R/R53W showed 970 nM (2 of 3 replicates).
Variant E23H/S55T/Q96K showed 100 nM (3 of 3 replicates).
Variant N33W/G94R showed nd (0 of 3 replicates).
Variant E23W/S26L/Y31L showed 1.4 µM (2 of 3 replicates).
Variant S88K/S89P/F98T showed 20 µM (2 of 3 replicates).
Variant E23S/L27H/D91S showed 3.5 µM (3 of 3 replicates).
Variant A32P/S92Q/G94R showed 360 nM (3 of 3 replicates).
Variant N51R/P54E/V97G showed 2.8 µM (2 of 3 replicates).
Variant S26F/R53C/S89E showed 700 nM (1 of 3 replicates).
Variant G24L/D91G showed 11 µM (1 of 3 replicates).
Variant Y29F/S88D/G94I showed 6.5 µM (1 of 3 replicates).
Variant N51E/P54M/S92W showed 11 µM (3 of 3 replicates).
Variant L27G/N52F/S93R showed 8.5 µM (1 of 3 replicates).
Variant N33C/P54N/G94I showed 1.2 µM (1 of 3 replicates).
Variant N33R/R53V/D91T showed 21 µM (2 of 3 replicates).
Variant G24L/Y31K/A32N showed 1.5 µM (1 of 3 replicates).
Variant R28H/G49T/S88A showed 8.3 µM (1 of 3 replicates).
Variant L27T/A32E/N52S showed 9.6 µM (2 of 3 replicates).
Variant E23H/Y30Q/V97M showed 2.3 nM (3 of 3 replicates).
Variant N52R/R53F/F95Q showed 4.3 µM (3 of 3 replicates).
Variant A32G/R90E/S92P showed 7.5 µM (2 of 3 replicates).
Variant K50C/N52Y/S88W showed nd (0 of 3 replicates).
Variant N51I/S89L showed 18 µM (1 of 3 replicates).
Variant E23I/A32Q/D91C showed nd (0 of 3 replicates).
Variant Y31C/P54C/S89W showed 2.5 µM (3 of 3 replicates).
Variant L27R/D91V/F95H showed 850 µM (1 of 3 replicates).
Variant E23S/L27N/R28K showed 270 nM (3 of 3 replicates).
Variant E23S/N51C/P54N showed 2.6 µM (3 of 3 replicates).

A selection of 5 entries from above:

changes	Kd (apparent)	replicates with signal
Y29M/N51I/F98P	nd	0 of 3
N33W/G94R	nd	0 of 3
N52R/R53F/F95Q	4.3 µM	3 of 3
E23S/L27N/R28K	270 nM	3 of 3
L27T/A32E/N52S	9.6 µM	2 of 3

In this assay the parent's reference entry averaged 200 nM; its copy inside this library read 180 nM.